One compound from ChEMBL document CHEMBL5727219, “Kinase inhibitors and method of treating cancer” (2019) can be followed below.

The chains behind the UniProt entries cited, without tags or fusion partners. Where a name states a change or a piece, a line headed by the entry shows the natural chain unless it says otherwise.
UniProt O00444: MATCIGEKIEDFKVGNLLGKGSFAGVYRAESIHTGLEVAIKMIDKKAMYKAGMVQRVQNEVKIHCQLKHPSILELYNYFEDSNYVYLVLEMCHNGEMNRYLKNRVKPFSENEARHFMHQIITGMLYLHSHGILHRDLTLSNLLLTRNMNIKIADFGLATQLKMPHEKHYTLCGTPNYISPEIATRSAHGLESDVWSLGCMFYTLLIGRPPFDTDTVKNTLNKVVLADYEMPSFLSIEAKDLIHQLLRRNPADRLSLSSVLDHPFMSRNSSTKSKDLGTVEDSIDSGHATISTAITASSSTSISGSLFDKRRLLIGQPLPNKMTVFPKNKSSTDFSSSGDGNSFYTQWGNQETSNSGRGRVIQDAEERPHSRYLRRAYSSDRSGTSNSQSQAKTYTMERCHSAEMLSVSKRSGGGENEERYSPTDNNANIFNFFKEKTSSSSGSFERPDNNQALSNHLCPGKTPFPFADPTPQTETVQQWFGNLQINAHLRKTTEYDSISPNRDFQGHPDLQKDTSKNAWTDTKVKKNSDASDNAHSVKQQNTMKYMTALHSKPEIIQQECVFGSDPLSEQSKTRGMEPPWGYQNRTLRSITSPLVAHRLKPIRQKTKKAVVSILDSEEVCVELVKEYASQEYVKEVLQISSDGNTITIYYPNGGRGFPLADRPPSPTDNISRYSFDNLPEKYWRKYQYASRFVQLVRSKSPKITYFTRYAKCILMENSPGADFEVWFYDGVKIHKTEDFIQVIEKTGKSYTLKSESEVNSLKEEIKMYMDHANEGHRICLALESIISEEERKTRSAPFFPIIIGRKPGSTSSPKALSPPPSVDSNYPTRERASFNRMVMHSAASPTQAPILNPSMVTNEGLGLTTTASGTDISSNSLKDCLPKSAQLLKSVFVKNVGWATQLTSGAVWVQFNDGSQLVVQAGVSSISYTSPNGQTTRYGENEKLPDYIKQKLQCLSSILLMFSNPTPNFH

One may read the IC50 as the midpoint of a concentration-inhibition curve. Read a high IC50 as weaker potency in that assay.

The target of the assay is Serine/threonine-protein kinase PLK4 (Homo sapiens, UniProt O00444).

The structures appear in SMILES notation.

As for `O=C1Nc2ccccc2[C@@]12C[C@@H]2c1ccc2c(I)n[nH]c2c1`, 2000 nM corresponded to half-maximal inhibition (IC50).
